Key:
[1] = test system: hepatic slices; test: Hepatic tissue slice uptake assay, wild-type and Oat3−/− mice; settings: 1 h; male wild-type littermates
Procedure: Data were calculated as tissue to medium T/M ratios and are presented as mean values ±S. E. (3 slices, treatment).
Renal and hepatic tissue slice preparation and uptake assays were performed according to standard protocols. Four- to 6-month-old mice were euthanized by CO2 inhalation, and the liver and kidneys were immediately placed into freshly oxygenated ice-cold saline. Tissue slices (˜0.5 mm; ˜5-10 mg, wet weight) were cut with a Stadie-Riggs microtome and maintained in ice-cold modified Cross and Taggart saline (in mM: 95 NaCl, 80 mannitol, 5 KCl, 0.74 CaCl2, and 9.5 Na2PO4, pH 7.4). […] Conditions for the PAH experiments were optimized for Oat1 by the addition of 10 μM glutarate to the uptake buffer. After incubation the slices were removed from the uptake medium, blotted, weighed, dissolved in 1 ml of 1M NaOH, neutralized with 1 ml of 1M HCl, and assayed by liquid scintillation spectroscopy. Duplicate medium samples (50 μl) were also assayed, and data are presented as tissue to medium (T/M) ratios (i.e. dpm/mg of tissue divided by dpm/μl of medium).

[2] = target: T1, mouse Oat3 (Mus musculus, UniProt O88909); settings: 1 h uptake; 10 μM [3H]PAH, 90 nM [3H]estrone sulfate, 500 nM [3H]taurocholate
T1 sequence (O88909 1-537): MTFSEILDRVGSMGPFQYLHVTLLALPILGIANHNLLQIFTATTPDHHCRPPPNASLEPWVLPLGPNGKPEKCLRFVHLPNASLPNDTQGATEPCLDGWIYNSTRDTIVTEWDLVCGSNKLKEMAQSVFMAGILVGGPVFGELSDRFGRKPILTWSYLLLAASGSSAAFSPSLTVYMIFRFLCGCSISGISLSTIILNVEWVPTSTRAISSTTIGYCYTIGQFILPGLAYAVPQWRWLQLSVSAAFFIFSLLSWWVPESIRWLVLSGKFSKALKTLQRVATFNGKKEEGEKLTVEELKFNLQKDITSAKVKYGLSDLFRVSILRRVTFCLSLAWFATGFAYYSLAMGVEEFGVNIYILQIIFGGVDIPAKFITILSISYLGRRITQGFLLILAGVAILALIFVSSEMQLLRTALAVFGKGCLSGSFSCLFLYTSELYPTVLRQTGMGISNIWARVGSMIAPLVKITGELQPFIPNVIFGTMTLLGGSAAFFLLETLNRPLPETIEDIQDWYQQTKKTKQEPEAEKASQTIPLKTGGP
Procedure: FIG. 13 oocytes three days after injection with either mouse Oat1 or mouse Oat3 cRNA. Oocytes were randomly sorted into test groups and 1 h uptake determined.
Transport Assays-Xenopus oocyte isolation procedures and uptake assay. Ovaries were removed from tricaine methanesulfonate anesthetized adult female Xenopus laevis and follicle-free stage V and stage VI oocytes were isolated by treatment with collagenase A. After an overnight recovery period in Barth's buffer at 18° C., oocytes were microinjected with 20 ng of capped cRNA synthesized from linearized cDNA (mMessage mMachine in vitro transcription kit, Ambion, Inc., Austin, Tex.). […] Oocyte radioactivity was measured in disintegrations/min (dpm) in a Packard 1600TR liquid scintillation counter with external quench correction.

[3] = test system: choroid plexus; test: Accumulation in isolated choroid plexus, confocal fluorescence microscopy, wild-type and Oat3−/− mice; settings: 1 μM FL or 2 μM FL-MTX, 45 min
Description: The CP is composed of capillary projections surrounded by a single layer of cells that protrude into the cerebrospinal fluid-filled ventricles of the brain. The orientation is such that the CSF bathes the apical membrane of the cell and the basal membrane is toward the underlying fenestrated capillary. (A and C) Transmitted light images of wild-type and Oat3^−/− CP, respectively, showing the tissue structure. (B and D) Corresponding fluorescence micrographs of the CP shown in (A) and (C). Confocal images were acquired 45 min after exposure to 1 μM FL in the aCSF medium. […] The positions of representative cells and capillaries (CUD) are indicated by arrows. A 20-μm bar is shown.
Fluorescence levels in cells and vessels of CP from 4 wild-type and 4 Out3^−/− mice were measured (n=5-10 adjacent cellular and capillary areas/CP). […] Data are given as mean ±S.E. for each animal.
Choroid plexus isolation. Adult male and female wild-type and Oat3^−/− mice were euthanized with CO2.
Confocal Fluorescence Microscopy. CP were imaged as using an inverted Zeiss model 510 laser scanning confocal microscope fitted with a 40μ water immersion objective (numeric aperture, 1.2). Samples were illuminated with the 488-nm line of an argon laser; a 510-nm dichroic filter was in the light path, and a long pass emission filter (515 nm) was positioned in front of the detector. […] For each CP, 5-10 adjacent cellular and capillary areas were selected. After background subtraction, the average pixel intensity for each area was calculated and the values reported graphically for each CP are the means ±S.E. for all selected areas (n˜5-10). Values reported in the text are mean ±S.E. of the individual mean values for each CP as determined above (n˜4-6 animals/group).

Substance | difference in hepatic slice uptake between wild-type and Oat3−/− mice [1] | mediated uptake in Oat3-expressing oocytes [2] | capillary accumulation in CP from Oat3−/− mice compared with wild-type [3] | capillary accumulation in CP from Oat3−/− mice compared with wild-type ([3]; listed as FL-MIX) | capillary accumulation in CP from Oat3−/− mice compared with wild-type ([3]; listed as fluorescein-methotrexate)
estrone sulfate | lack of any significant difference | substantial | – | – | –
fluorescein-methotrexate [FL-MTX] | – | – | unchanged | No difference | unchanged
